Only a part is listed here, and it is no random draw. Some tests of the compounds listed are not included; inactive here does not mean inactive elsewhere. The source made the active and inactive calls.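 Rule for the calls: active = B-score under library mean minus 4 SD, starting fluorescence ratio at most library mean plus 5 SD; inactive = the rest.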

Protein sequences, listed by entry. Tags and fused reporters are not part of them.
UniProt O14649, whole entry: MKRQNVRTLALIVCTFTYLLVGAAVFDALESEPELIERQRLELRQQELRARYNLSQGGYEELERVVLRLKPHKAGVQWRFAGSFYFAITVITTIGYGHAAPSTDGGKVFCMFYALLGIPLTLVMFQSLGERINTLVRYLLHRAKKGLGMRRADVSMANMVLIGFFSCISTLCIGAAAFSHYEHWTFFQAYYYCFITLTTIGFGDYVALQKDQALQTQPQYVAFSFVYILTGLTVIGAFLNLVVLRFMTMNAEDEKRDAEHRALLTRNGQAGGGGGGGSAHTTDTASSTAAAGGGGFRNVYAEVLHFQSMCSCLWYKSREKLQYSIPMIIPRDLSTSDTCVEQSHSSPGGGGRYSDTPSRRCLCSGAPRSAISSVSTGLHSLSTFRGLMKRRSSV

The target of this assay is Potassium channel subfamily K member 3 (Homo sapiens) (UniProt O14649). As to the kind of experiment: blockers of TASK1 two-pore potassium channel – CHO cells, FluxOR thallium flux, B-score, primary screen (AID 602410). The following applies: CHO-KCNK3 thallium flux, FluxOR fluorescence; at 10 µM.
Consider `CC(C)Oc1ccc(C(=O)NCC2(N(C)C)CCCCC2)cc1`, for which the call was inactive.

Turning to `O=C(OCCN1CCCC1)C(O)(c1ccccc1)c1ccccc1`, the result was inactive.

In the case of `CN(C)c1cccc(C(=O)NCC2(N(C)C)CCCCC2)c1`, the call was inactive.

For the molecule `COc1ccc(Br)c(C(=O)NCC2(N3CCCCC3)CCCCC2)c1`, the result was inactive.

Consider `O=C(OC1CN2CCC1CC2)C(CO)(c1ccccc1)c1ccccc1` (stereo not given), for which the outcome was inactive.

For `O=C(NCC1(N2CCCCC2)CCCCC1)c1cccc(Cl)c1`, the outcome was inactive.

Take `COc1cccc(C(=O)NCC2(N3CCCCC3)CCCCC2)c1`: the molecule was classed as inactive.

As to `COc1ccc(Cl)cc1C(=O)NCC1(N(C)C)CCCCC1`, the outcome was inactive.

Regarding `COc1cc(C(=O)NCC2(N(C)C)CCCCC2)c([N+](=O)[O-])cc1OC`, the call was inactive.

For the molecule `CN(C)C1(CNC(=O)c2ccc(Br)cc2)CCCCC1`, the result was inactive.

Take `COc1ccc(C(=O)NCC2(N(C)C)CCCCC2)cc1`: the molecule was called inactive.

For the molecule `CCN1CCCC(OC(=O)C2(O)c3ccccc3C=Cc3ccccc32)C1` (stereo not given), the outcome was inactive.

Turning to `Cc1cc(C(=O)NCC2(N3CCCCC3)CCCCC2)ccc1[N+](=O)[O-]`, the call was inactive.

On to `O=C(NCC1(N2CCCCC2)CCCCC1)c1cccc(Br)c1`, for which the molecule was classed as inactive.

Regarding `C=CCN1CCN(CCOC(=O)C(O)(c2ccccc2)c2ccccc2)CC1`, the call was inactive.

Turning to `O=C(NCC1(N2CCCCC2)CCCCC1)c1cc(F)c(F)cc1Cl`, the molecule was classed as inactive.

For `Cc1ccccc1C(=O)NCC1(N2CCCCC2)CCCCC1`, the result was inactive.

As for `CN(C)c1ccc(C(=O)NCC2(N(C)C)CCCCC2)cc1`, the molecule was classed as inactive.

Consider `CN(C)C1CCCC1OC(=O)C(O)(c1ccccc1)c1ccccc1` (stereo not given), for which the call was inactive.

On to `Cc1ccc(C(=O)NCC2(N3CCCCC3)CCCCC2)cc1`, for which the call was inactive.

Take `CCN(CC)CC(C)C(C)OC(=O)C(O)(c1ccccc1)c1ccccc1` (stereo not given): the result was inactive.

As for `COc1cc(SC)ccc1C(=O)NCC1(N(C)C)CCCCC1`, the molecule was classed as inactive.

As for `CC(C)N1C(=O)CC2(CCN(CCOC(=O)C(O)(c3ccccc3)c3ccccc3)CC2)C1=O`, the outcome was inactive.

With `CN1[C@@H]2CC[C@H]1CC(OC(=O)C(O)(c1ccccc1)c1ccccc1)C2` (stereo not given in full), the result was inactive.

In the case of `O=C(NCC1(N2CCCCC2)CCCCC1)c1cc([N+](=O)[O-])ccc1Cl`, the outcome was inactive.

The values are drawn from PubChem BioAssay AID602410 (Johns Hopkins Ion Channel Center, 2012).
